{
  "source": "patent US6210929A",
  "about": "“Fusion protein comprising a furin derivative or a derivative of a furin analogue and a heterologous sequence” (Baxter Aktiengesellschaft, priority 1995, dated 2001)",
  "system": "rFX",
  "assay": "FX activity by FX-Coatest-Kit (RVV activation, chromogenic substrate S-2337)",
  "format": "biochemical, human",
  "settings": "incubated with CHO supernatants (without r-furin), up to 6 hours",
  "procedure": "d. Activity of the in vitro-processed CHO-rFX The supernatants from the experiment mentioned under c.) subsequently were tested for FX activity by means of FX-Coatest-Kit (from Chromogenix). For this, 50 μl of each supernatant were admixed with 50 μl of FX-deficient human plasma, and according to the protocol of the producer, rFX was reacted to rFXa with snake venom (RVV) in the presence of CaCl2; rFXa subsequently hydrolyses the chromogenic substrate (S-2337) and leads to the liberation of the yellow-coloured paranitroaniline. Since the amount of rFXa and the colour intensity are proportional to each other, the amount of rFX activatable to rFXa/ml cell culture supernatant can be determined with the help of a calibration straight line, interpolated from values of the plasma dilution series. […]",
  "data": [
    {"substance": "CHO-rFX: recombinant human factor X expressed in CHO cells, cell culture supernatant", "values": [
      {"measurement": "functional rFX", "value": "19-25%"},
      {"measurement": "rFXa activity", "value": "150-200 mU/ml"}
    ]}
  ]
}
